Earlier results, collected in publication PMC8197769 (Progress in retinal and eye research, 2020).

Test system: patients with paroxysmal nocturnal hemoglobinuria
Settings: human, in vivo

## eculizumab: monoclonal antibody that binds C5 and blocks its proteolytic activation
  safety during prolonged and systemic clinical intervention: acceptable safety profiles
